Data reported in US9018213B2, “Alicyclic[c] benzopyrone derivatives and uses thereof” (Huazhong University of Science & Technology, priority 2011, dated 2015).

Columns and labels:
[1] = in vivo; conditions: both, Kunming (KM), mouse, po
[2] = test system: KM mice; conditions: mouse, in vivo

Row | SMILES | ED50 [1] [mg/kg] | EPS at effective dosage (in words) [2]
1 | Cc1cc2c(s1)Nc1ccccc1N=C2N1CCN(C)CC1 [olanzapine] | 2.23 | 
2 | Cc1nc2n(c(=O)c1CCN1CCC(c3noc4cc(F)ccc34)CC1)CCCC2 [risperidone] | 0.92 | did not cause EPS at effective dosage
